# In ChEMBL document CHEMBL4265938, “Donepezil-based multi-functional cholinesterase inhibitors for treatment of Alzheimer's disease” (Eur J Med Chem, 2018):
# Experiment: Antioxidant activity assessed as trolox equivalent of AAPH-induced radical scavenging activity at 70 nM preincubated for 15 mins followed by AAPH addition measured every min for 80 mins by ORAC-FL assay
# Type: functional
smiles,measurement,value
COc1cc(/C=C/C(=O)O)ccc1O,Activity,3.74 equiv
